Test results reported in paper PMC12702776 (2025).

B1: GST-PAK1 RBD (RAC1 binding domain of p21-activated kinase 1) (domain or fragment)
chain: SILPGDKTNKKKEKERPEISLPSDFEHTIHVGFDAVTGEFTGMPEQWARLLQTSNITKSEQKKNPQAVLDVLEFYNSKKTSNSQK
B2: GST-GDI1 (guanosine dissociation inhibitor 1, full-length) (natural protein)
chain: MAEQEPTAEQLAQIAAENEEDEHSVNYKPPAQKSIQEIQELDKDDESLRKYKEALLGRVAVSADPNVPNVVVTGLTLVCSSAPGPLELDLTGDLESFKKQSFVLKEGVEYRIKISFRVNREIVSGMKYIQHTYRKGVKIDKTDYMVGSYGPRAEEYEFLTPVEEAPKGMLARGSYSIKSRFTDDDKTDHLSWEWNLTIKKDWKD
B3: His-IQGAP1 C794 (C-terminal 794 amino acids of IQ motif-containing GTPase-activating protein 1) (domain or fragment)
chain: PPMVVVRKFVHLLDQSDQDFQEELDLMKMREEVITLIRSNQQLENDLNLMDIKIGLLVKNKITLQDVVSHSKKLTKKNKEQLSDMMMINKQKGGLKALSKEKREKLEAYQHLFYLLQTNPTYLAKLIFQMPQNKSTKFMDSVIFTLYNYASNQREEYLLLRLFKTALQEEIKSKVDQIQEIVTGNPTVIKMVVSFNRGARGQNALRQILAPVVKEIMDDKSLNIKTDPVDIYKSWVNQMESQTGEASKLPYDVTPEQALAHEEVKTRLDSSIRNMRAVTDKFLSAIVSSVDKIPYGMRFIAKVLKDSLHEKFPDAGEDELLKIIGNLLYYRYMNPAIVAPDAFDIIDLSAGGQLTTDQRRNLGSIAKMLQHAASNKMFLGDNAHLSIINEYLSQSYQKFRRFFQTACDVPELQDKFNVDEYSDLVTLTKPVIYISIGEIINTHTLLLDHQDAIAPEHNDPIHELLDDLGEVPTIESLIGESSGNLNDPNKEALAKTEVSLTLTNKFDVPGDENAEMDARTILLNTKRLIVDVIRFQPGETLTEILETPATSEQEAEHQRAMQRRAIRDAKTPDKMKKSKSVKEDSNLTLQEKKEKIQTGLKKLTELGTVDPKNKYQELINDIARDIRNQRRYRQRRKAELVKLQQTYAALNSKATFYGEQVDYYKSYIKTCLDNLASKGKVSKKPREMKGKKSKKISLKYTAARLHEKGVLLEIEDLQVNQFKNVIFEISPTEEVGDFEVKAKFMGVQMETFMLHYQDLLQLQYEGVAVMKLFDRAKVNVNLLIFLLNKKFYGK

Experiments:
RAC1^F28L, purified [1] = molecular target: T1, RAC1^F28L, purified (human, UniProt P63000 1-192, F28L); test: mGppNHp-bound RAC1
RAC1^P29S, purified [2] = molecular target: T2, RAC1^P29S, purified (human, UniProt P63000 1-192, P29S); test: mGppNHp-bound RAC1
RAC1^F28L, purified [3] = molecular target: T1, RAC1^F28L, purified; test: FP; mGppNHp-bound RAC1
RAC1^P29S, purified [4] = molecular target: T2, RAC1^P29S, purified; test: FP; mGppNHp-bound RAC1
RAC1^F28L, purified [5] = molecular target: T1, RAC1^F28L, purified; test: mGppNHp-bound RAC1; remark: listed apart in the source
RAC1^P29S, purified [6] = molecular target: T2, RAC1^P29S, purified; test: mGppNHp-bound RAC1; remark: listed apart in the source
RAC1^T17N, purified [7] = molecular target: T3, RAC1^T17N, purified (human, UniProt P63000 1-192, T17N); test: mdGDP-bound RAC1
RAC1^F28L, purified [8] = molecular target: T1, RAC1^F28L, purified; test: mdGDP-bound RAC1
RAC1^P29S, purified [9] = molecular target: T2, RAC1^P29S, purified; test: mdGDP-bound RAC1
RAC1^P29S, purified [10] = molecular target: T2, RAC1^P29S, purified; test: mdGDP-bound RAC1; remark: listed apart in the source
RAC1^T17N, purified [11] = molecular target: T3, RAC1^T17N, purified; test: mGppNHp-bound RAC1

| Binder | Kd (RAC1^F28L, purified [1]) [nM] | Kd (RAC1^P29S, purified [2]) [nM] | Kd (RAC1^F28L, purified [3]) [nM] | Kd (RAC1^P29S, purified [4]) [nM] | koff (RAC1^F28L, purified [5]) [s⁻¹] | koff (RAC1^P29S, purified [6]) [s⁻¹] | Kd (RAC1^T17N, purified [7]) [nM] | Kd (RAC1^F28L, purified [8]) [nM] | Kd (RAC1^P29S, purified [9]) [nM] | koff (RAC1^P29S, purified [10]) [s⁻¹] | Kd (RAC1^T17N, purified [11]) [nM] |
| --- | --- | --- | --- | --- | --- | --- | --- | --- | --- | --- | --- |
| B1 | 510 | 4370 | 850 | 8740 | 0.0022 | 0.075 | – | – | – | – | – |
| B2 | – | – | – | – | – | – | 11100 | 860 | 930 | 1.11 | – |
| B3 | 332 | 145 | – | – | – | – | – | – | – | – | 634 |
